The text below walks through data of patent US10208056B2, “Condensed tricyclic compounds as protein kinase inhibitors” (FUNDACIÓN DEL SECTOR PÚBLICO ESTATAL CENTRO NACIONAL DE …, priority 2015, dated 2019).

The chains behind the UniProt entries cited, without tags or fusion partners. Residues count along the entry.
UniProt Q8TF76, 484-798: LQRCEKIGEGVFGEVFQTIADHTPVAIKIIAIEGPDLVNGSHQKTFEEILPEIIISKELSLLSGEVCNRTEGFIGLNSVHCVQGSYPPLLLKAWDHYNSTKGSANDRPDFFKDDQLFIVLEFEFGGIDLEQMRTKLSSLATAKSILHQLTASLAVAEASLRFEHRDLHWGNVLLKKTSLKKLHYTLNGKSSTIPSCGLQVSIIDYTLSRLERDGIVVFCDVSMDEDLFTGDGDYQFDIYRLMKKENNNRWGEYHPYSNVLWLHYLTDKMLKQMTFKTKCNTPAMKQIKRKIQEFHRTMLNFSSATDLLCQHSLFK

For orientation: IC50 means the point on the concentration scale where inhibition reaches its midpoint. High values mean lower potency, low ones higher potency. As a reminder, the GI50 is the concentration that inhibits growth by half.

One assay concerns the target Haspin kinase (Homo sapiens (Human), UniProt Q8TF76). As to the kind of experiment: Haspin kinase assay (ADP-Glo). It is filed as biochemical. The settings on record: ATP 150 μM. An excerpt: The kinase assay relies on ADP-Glo^KM biochemical kinase assay (Promega). This is a luminescent kinase assay that measures ADP formed from a kinase reaction. Then ADP is converted into ATP, which is transformed into a light signal by Ultra-Glo™ Luciferase. The luminescent signal positively correlates with kinase activity. The assay measures the intrinsic ATPase activity (in the absence of peptidic substrate as phosphate acceptor).
The enzyme was purchase from Invitrogen (PV5708) as the kinase domain of GST tagged recombinant human proteins.
Assay conditions were as indicated by the kit manufacturers with the following adaptations: • Assay buffer: 15 mM HEPES pH 7.4, 20 mM NaCl, 1 mM EGTA, 0.02% Tween 20, 10 mM MgCl2, 0.1 mg/ml BGG • Assay volume: 20 μl • Incubation time and temperature: 60 min at 30° C. • Haspin concentration: 20 nM • ATP concentration: 150 μM • Tested compound: Serial 1:3 dilutions • Final DMSO concentration in the assay: 1%
Assays were performed in 384-well plates. The final read out was generated using an EnVision plate reader (Perkin-Elmer). Luminescent relative units are normalized against the control activity included for each compound (i.e., 100% Haspin activity, without compound) and the percentage of inhibition is calculated.

Assay [1] has as its target T1, intracellular HASPIN (Homo sapiens (Human), UniProt Q8TF76). Put plainly: Cellular HASPIN inhibition assay, western blot phospho H3T3 in synchronized SW620 cells. Type of assay: cell-based. The settings on record: semiquantitative, read-out: SW620 PH3(T3) in synchronized cells. On the procedure: Compounds can be screened for their ability to inhibit intracellular HASPIN using a western blot assay to detect phosphorylation of the HASPIN substrate H3T3 in synchronized cells. SW620 cells are plated at 200000 cells per well in 6-well plates (Solmeglas 13118) in RPMI media (Sigma-Aldrich R6504) supplemented with 10% foetal bovine serum (Sigma-Aldrich F7524), Penicillin/Streptomycin solution diluted 1:100 (Gibco 15070-063), and fungizone (Gibco, 15290-018), and allowed to adhere overnight at 37° C. in 5% CO2. Cells are then treated 16 h hours with Nocadazole (Sigma-Aldrich M1404) at 250 ng/ml to arrest them in mitosis. Proteasoma inhibitor MG132 (Sigma-Aldrich C2211) is added to a final concentration of […] to keep cells arrested in mitosis. Compounds are then added to the cell media from a final concentration of 10 μM in 10-fold serial dilutions and the cells are incubated at 37° C. in 5% CO2. […] The protein content of the lysates is determined by DC protein assay (Biorad, Ref. 5000116). […] The bands are visualized and quantified using an Odyssey infrared imaging system (Li-Cor Biosciences). […] The percentage of H3 phosphorylation is finally plotted against concentration for each compound and EC50s for intracellular HASPIN inhibition are calculated using ActivityBase from IDBS.

In assay [2] the target is T1, intracellular HASPIN. Put plainly: Endogenous phosphoH3 inhibition in SW620 cells growing in 10% FBS. It is filed as cell-based. The conditions noted are these: semiquantitative, read-out: SW620 pH3(T3). The procedure:
Endogenous phosphoH3 inhibition can be screened in cells growing in 10% FBS. Cells are plated as described before and treated for 8 h with compounds as described before. Then cells are lysated and phospho H3 evaluated as described before. The percentage of phosphorylated H3 vs total H3 in cells treated with DMSO is taken as hundred percent of phosphorylation. The percentage of H3 phosphorylation is finally plotted against concentration for each compound and EC50s for intracellular HASPIN inhibition are calculated using ActivityBase from IDBS.

A further assay has as its system DU145. Put plainly: Combination assay, DU145. It is filed as cell-based. The conditions noted are these: Homo sapiens, DU-145; DU145, chemotherapeutic alone; read-out: Chemo GI50. The procedure: The combination index (CI) of combinations of certain example compounds and various chemotherapeutic agents in the CellTitetI-Glo® in vitro cell proliferation assays may be tested. A combination index score is calculated by the Chou and Talalay method (CalcuSyn software, Biosoft). The strength of synergy is scored using the ranking system Chou and Talalay: CI less than 0.8 indicates synergy, CI between 0.8 and 1.2 indicates additivity and CI greater than 1.2 indicates antagonism.
The EC50 values of representative combinations are also calculated. The individually measured EC50 values of the chemotherapeutic agent and the example compounds are compared to the EC50 value of the combination. The cell lines are characterised by tumor type. Combination assays are performed as described in: “Pim 1 kinase inhibitor ETP-45299 suppresses cellular proliferation and synergizes with PI3K inhibition”. Blanco-Aparicio, Carmen; Collazo, Ana Maria Garcia; Oyarzabal, Julen; Leal, Juan F.; Albaran, Maria Isabel; Lima, Francisco Ramos; Pequeno, Belen; Ajenjo, Nuria; Becerra, Mercedes; Alfonso, Patricia; Reymundo, Maria Isabel; Palacios, Irene; Mateos, Genoveva; Quinones, Helena; Corrionero, Ana; Carnero, Amancio; Pevarello, Paolo; Lopez, Ana Rodriguez; Fominaya, Jesus; Pastor, Joaquin; Bischoff, James R. Cancer Letters (Shannon, Ireland) 2011, 300(2), 145-153

Structures are written as SMILES. Some results are limits rather than exact numbers.

In the case of `NC(=O)c1cc2c([nH]1)-c1ccncc1O[C@@H]2C1CCCCC1` (single isomer, unassigned) [Example 69], at Haspin kinase, inhibition was half-maximal at 5.15 µM (IC50). For the same compound, the EC50 on intracellular HASPIN [1] lay within 0.5 to 10 µM.

With `NC(=O)c1cc2c([nH]1)-c1ccncc1O[C@H]2C1CCCCC1` (single isomer, unassigned) [Example 70], the EC50 at intracellular HASPIN [1] and at intracellular HASPIN [2] was under 0.5 µM in each case.

`NC(=O)c1cc2c([nH]1)-c1ccncc1OC2C1CCCCC1` (stereo not shown) [Example 57] yielded an IC50 at Haspin kinase of 0.296 µM.

Regarding `CCn1c(C(N)=O)cc2c1-c1ccncc1OC21CCC1` [Example 66], 0.0262 µM corresponded to half-maximal inhibition on Haspin kinase (IC50).

`CC(=O)O[C@H]1C(=O)[C@@]2(C)[C@H]([C@H](OC(=O)c3ccccc3)[C@]3(O)C[C@H](OC(=O)[C@H](O)[C@@H](NC(=O)c4ccccc4)c4ccccc4)C(C)=C1C3(C)C)[C@]1(OC(C)=O)CO[C@@H]1C[C@@H]2O` [Taxol, paclitaxel, reference compound]: the GI50 in the assay on DU145 was found to be 0.0025 µM.
